ChEMBL document CHEMBL3286161, “Prostanoid receptor EP2 as a therapeutic target” (J Med Chem, 2014)

Columns and labels:
Homo sapiens [1] = species on record: Homo sapiens; assay: Selectivity ratio of Kb for EP4 receptor (unknown origin) to Kb for EP2 receptor (unknown origin)
Homo sapiens [2] = species on record: Homo sapiens; assay: Selectivity ratio of Kb for prostanoid IP receptor (unknown origin) to Kb for EP2 receptor (unknown origin)

CCc1nnc(NS(=O)(=O)c2ccc(NC(=S)NC(=O)/C=C/c3ccc(F)cc3)cc2)s1
Ratio (Homo sapiens [1]): 440 | Ratio (Homo sapiens [2]): 22
